Test [1] concerns C57BL/6 mice exposed to Cl2 gas. Briefly: Cl2-induced acute lung injury, intramuscular AMD3100.
For test [2] the test system is unchanged. In words: Cl2-induced chronic lung injury (14 days), intramuscular AMD3100. The following applies: AMD3100 0.05 mg/kg IM 1 hour post Cl2 (500 ppm, 30 min).
Where [3] appears, read: AMD3100 0.05 mg/kg IM 1 hour post Cl2 (500 ppm, 30 min), 1 day post exposure, vs Cl2+saline.
The mark [4] stands for this setting: AMD3100 0.05 mg/kg IM 1 hour post Cl2 (500 ppm, 30 min), vs Cl2+saline.

For the compound `c1cc(CN2CCCNCCNCCCNCC2)ccc1CN1CCCNCCNCCCNCC1`, in test [1] (setting [3]), the “plasma IL-6” value is listed as “reduced” and the “plasma TNF-α” value is on record as “reduced”. In addition, in test [1] (setting [4]), the “neutrophil elastase activity in BALF” value is on record as “reduced” and the “neutrophil elastase activity in plasma” value is given as “reduced”. Also, the “lung injury and mortality (anticipated)” value in test [1] (anticipated, AMD3100 intramuscularly and intranasally in Cl2 exposed mice) is “improve lung injury and mortality”. Also, the “mean difference in BALF protein levels, Cl2+saline vs. Cl2+AMD3100” value in test [1] (preliminary experiments (FIG. 5A), pooled standard deviation 0.202409) came to 0.2627. Also, the “chronic inflammatory sequelae in lungs (fibrotic and emphysematous changes)” value in test [2] is reported as “prevented”. Besides, in test [2] (14 days post exposure, vs Cl2+saline), the “peribronchial collagen deposition (trichrome staining)” value is on record as “attenuated”.

These data come from patent US20230127198A1, “COMPOSITIONS AND METHODS FOR THE TREATMENT OF TOXIC GAS EXPOSURE” (published 2023).
